Assay results published in patent US20050123553A1, “Amyloid beta-peptide and methods of use” (priority 2003, published 2005).

Amino acid sequences for entries named in this document (tags omitted). A change or cut given only in a name is not applied to a line headed by its entry.
UniProt P05067: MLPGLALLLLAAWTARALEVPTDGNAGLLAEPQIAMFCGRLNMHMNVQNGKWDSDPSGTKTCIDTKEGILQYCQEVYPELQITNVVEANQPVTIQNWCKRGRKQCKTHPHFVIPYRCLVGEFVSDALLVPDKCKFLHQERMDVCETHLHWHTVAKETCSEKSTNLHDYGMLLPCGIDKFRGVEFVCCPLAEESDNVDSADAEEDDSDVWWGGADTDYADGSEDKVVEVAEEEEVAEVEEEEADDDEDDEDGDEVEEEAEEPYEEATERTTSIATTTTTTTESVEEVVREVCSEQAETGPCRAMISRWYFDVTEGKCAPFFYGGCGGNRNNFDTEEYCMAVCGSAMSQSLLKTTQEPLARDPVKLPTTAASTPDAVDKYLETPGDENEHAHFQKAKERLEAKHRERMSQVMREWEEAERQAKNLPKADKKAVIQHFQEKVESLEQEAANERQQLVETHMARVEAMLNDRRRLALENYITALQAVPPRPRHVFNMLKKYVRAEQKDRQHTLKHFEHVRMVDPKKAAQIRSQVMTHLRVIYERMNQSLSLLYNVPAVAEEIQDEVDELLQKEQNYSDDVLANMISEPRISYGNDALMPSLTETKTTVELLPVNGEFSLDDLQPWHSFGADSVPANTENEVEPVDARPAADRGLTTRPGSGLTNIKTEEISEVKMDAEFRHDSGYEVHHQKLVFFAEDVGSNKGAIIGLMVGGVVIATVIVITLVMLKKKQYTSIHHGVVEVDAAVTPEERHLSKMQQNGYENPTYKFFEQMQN

Tested on: popliteal draining lymph nodes (PLN) T cells
Experiment: Lymph node T-cell proliferation after immunization of mice with Aβ in CFA
Format: cell-based, mouse
Conditions: SJL mice immunized with rodent Aβ1-42

**Q.** How did the “T-cell proliferation across the peptide series Aβ7-21 to Aβ10-24” value turn out when “Aβ9-23: Aβ peptide, residues 9-23 (GYEVHHQKLVFFAED; Amyloid-beta protein 42; UniProt P05067 680-694, looked up, fragment)” was run?
**A.** gradual increase
